Test [1] concerns C. difficile SK & F 3092. It is filed as cell-based. The following applies: Anaerobes.
Test [2] deals with C. difficile SK & F 3091. The test is classed as cell-based. The following applies: Anaerobes.

≈ marks a conversion by molar mass, not a printed value.

For `CCCCCCCCCC(=O)N[C@H]1[C@H](Oc2c3cc4cc2Oc2c(Cl)cc(cc2Cl)[C@@H](O)[C@@H]2NC(=O)[C@H](NC(=O)[C@@H]4NC(=O)[C@H]4NC(=O)[C@H](NC(=O)[C@H](NC)c5ccc(O)c(c5)Oc5cc(O)c(Cl)c4c5)[C@H](O)c4ccc(c(Cl)c4)O3)c3ccc(O)c(c3)-c3c(O[C@H]4O[C@H](CO)[C@@H](O)[C@H](O)[C@@H]4O)cc(O)cc3[C@@H](C(=O)O)NC2=O)O[C@H](C(=O)O)[C@@H](O)[C@@H]1O` [AAD 216A], the MIC in test [1] was 0.125 µg/mL (≈ 0.0699 µM); in test [2] it was 0.125 to 0.25 µg/mL.

Regarding `CN[C@H]1C(=O)N[C@H]2C(=O)N[C@H](C(=O)N[C@H]3C(=O)N[C@H]4C(=O)N[C@H](C(=O)N[C@H](C(=O)O)c5cc(O)cc(O[C@H]6O[C@H](CO)[C@@H](O)[C@H](O)[C@@H]6O)c5-c5cc4ccc5O)[C@H](O)c4cc(Cl)c(c(Cl)c4)Oc4cc3cc(c4O[C@@H]3O[C@H](C(=O)O)[C@@H](O)[C@H](O)[C@H]3NC(=O)CCCCCCCC(C)C)Oc3ccc(cc3Cl)[C@H]2O)c2cc(cc(O)c2Cl)Oc2cc1ccc2O` [AAD 216B], the MIC in test [1] and in test [2] was 0.25 µg/mL (≈ 0.139 µM) each time.

Take `CN[C@H]1C(=O)N[C@H]2C(=O)N[C@H](C(=O)N[C@H]3C(=O)N[C@H]4C(=O)N[C@H](C(=O)N[C@H](C(=O)O)c5cc(O)cc(O[C@H]6O[C@H](CO)[C@@H](O)[C@H](O)[C@@H]6O)c5-c5cc4ccc5O)[C@H](O)c4cc(Cl)c(c(Cl)c4)Oc4cc3cc(c4O[C@@H]3O[C@H](C(=O)O)[C@@H](O)[C@H](O)[C@H]3NC(=O)CCCCCCCCC(C)C)Oc3ccc(cc3Cl)[C@H]2O)c2cc(cc(O)c2Cl)Oc2cc1ccc2O`: the MIC in test [1] was 0.25 µg/mL (≈ 0.138 µM); in test [2], 0.031 µg/mL (≈ 0.0171 µM).
